{"source": "patent US20090238768A1", "about": "“MULTIMERIC MAGNETIC RESONANCE CONTRAST AGENTS” (priority 2005, published 2009)", "assay": "longitudinal relaxivity rl in human blood plasma at 37° C.", "format": "physicochemical", "description": "Compound 23 was dissolved in human blood plasma and the longitudinal relaxivity rl was measured at 37° C. at the following fields:\nCompound 7 was dissolved in human blood plasma and the longitudinal relaxivity rl was measured at 37° C. at the following fields:\nCompound 13 was dissolved in human blood plasma and the longitudinal relaxivity rl was measured at 37° C. at the following fields:\nCompound 36 was dissolved in human blood plasma and the longitudinal relaxivity rl was measured at 37° C. at the following fields:\nCompound 40 was dissolved in human blood plasma and the longitudinal relaxivity rl was measured at 37° C. at the following fields:\nCompound 43 was dissolved in human blood plasma and the longitudinal relaxivity rl was measured at 37° C. at the following fields:\nCompound 46 was dissolved in human blood plasma and the longitudinal relaxivity rl was measured at 37° C. at the following fields: […]", "data": [{"substance": "gadolinium derivative of 1,3,5-Tris-(N-(DO3A-acetamido)-N-methyl-4-amino-2-methyl-phenyl)-benzene [Compound 7]", "values": [{"measurement": "longitudinal relaxivity rl", "setting": "0.47 T", "result": 10.6, "unit": "mM^1s^1"}, {"measurement": "longitudinal relaxivity rl", "setting": "1.41 T", "result": 9.4, "unit": "mM^1s^1"}, {"measurement": "longitudinal relaxivity rl calculated for a field of 3 T", "setting": "3 T, calculated from the measurements at lower fields", "result": 9, "unit": "mM^1s^1"}]}]}
